Laboratory results from ChEMBL document CHEMBL5226352, “Inhibition of AlkB Nucleic Acid Demethylases: Promising New Epigenetic Targets” (J Med Chem, 2021).

The chains behind the UniProt entries cited, without tags or fusion partners. Where a name states a change or a piece, a line headed by the entry shows the natural chain unless it says otherwise.
UniProt Q9GZT9: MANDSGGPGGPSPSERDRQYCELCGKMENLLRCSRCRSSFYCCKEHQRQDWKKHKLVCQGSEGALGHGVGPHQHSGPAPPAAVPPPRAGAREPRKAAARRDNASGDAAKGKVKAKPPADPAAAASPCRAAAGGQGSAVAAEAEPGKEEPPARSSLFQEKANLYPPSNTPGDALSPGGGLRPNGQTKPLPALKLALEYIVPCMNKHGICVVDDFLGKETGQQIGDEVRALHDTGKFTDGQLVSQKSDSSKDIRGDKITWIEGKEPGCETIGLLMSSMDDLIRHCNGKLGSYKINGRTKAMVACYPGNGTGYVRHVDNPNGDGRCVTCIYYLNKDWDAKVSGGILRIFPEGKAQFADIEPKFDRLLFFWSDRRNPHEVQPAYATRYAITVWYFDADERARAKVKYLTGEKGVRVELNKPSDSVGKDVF

Target: Egl nine homolog 1 (Homo sapiens, UniProt Q9GZT9)

With O=C(O)CC[C@@H](O)C(=O)O as the compound, how does the IC50 read?
The IC50 was 7.3 mM.
